Experiment: xn = mol fraction of the nth substance listed
Details: 100 kPa

CCC[N+](CCC)(CCC)CCC.O=[N+]([O-])[O-] + CCCCCCCCCCCC[N+](C)(C)C.[Br-] + O
viscosity [mPa·s]
Details	x2 = 5.418e-05, x1 = 0.0001802	x2 = 0.0001084, x1 = 0.0001801	x2 = 0.0001625, x1 = 0.0001801	x2 = 0.0002167, x1 = 0.0001801	x2 = 0.0002708, x1 = 0.0001801	x2 = 0.000325, x1 = 0.0001801	x2 = 0.0003791, x1 = 0.0001801	x2 = 0.0004333, x1 = 0.0001801	x2 = 0.0004874, x1 = 0.0001801	x2 = 0.0005416, x1 = 0.0001801
293.15 K	1.042	1.043	1.045	1.047	1.048	1.048	1.049	1.049	1.049	1.05
298.15 K	0.924	0.926	0.927	0.928	0.928	0.929	0.929	0.929	0.93	0.93
303.15 K	0.819	0.822	0.824	0.824	0.825	0.825	0.825	0.825	0.826	0.826
308.15 K	0.729	0.73	0.731	0.732	0.735	0.735	0.735	0.736	0.736	0.736
313.15 K	0.661	0.663	0.664	0.664	0.665	0.665	0.666	0.666	0.666	0.666
318.15 K	0.614	0.616	0.617	0.617	0.618	0.618	0.618	0.618	0.618	0.618

— the CheMixHub ionic liquid set
